Laboratory results from publication PMC10380293 (International Journal of Molecular Sciences, 2023).

Target: mScarlet-I-PCNA (human, UniProt P12004 1-261)
Test: FRET or BRET; 1 µM p15-mNeonGreen (donor) with 0-3.09 µM mScarlet-I-PCNA (acceptor, protomer concentration) in PBS with 1 mM DTT, 37 °C for 1 h, 384 well plate; sensitized emission by the three-channel method, control mNeonGreen/mScarlet-I-PCNA subtracted; apparent for C148S
Conditions: both partners purified

B1: p15-mNeonGreen (natural protein, UniProt Q15004 1-111, looked up)
chain: MVRTKADSVPGTYRKVVAARAPRKVLGSSTSATNSTSVSSRKAENKYAGGNPVCVRPTPKWQKGIGEFFRLSPKDSEKENQIPEEAGSSGLGKAKRKACPLQPDHTNDEKE
  Kd: 431 nM
